Fraction unbound data for 1 compound are collected here from ChEMBL document CHEMBL3526069, “Human pharmacokinetic prediction of UDP-glucuronosyltransferase substrates with an animal scale-up approach” (Drug Metab Dispos, 2011).

This data set can be described thus: in vitro. To be noted: rhesus monkey, plasma.

Compound `Cc1cn([C@H]2C[C@H](N=[N+]=[N-])[C@@H](CO)O2)c(=O)[nH]c1=O` [ZIDOVUDINE] displayed an unbound share (fraction unbound) of 0.707.

In general, fraction unbound refers to the share of the substance not bound to proteins or other matrix.
